This is a selection; strong and weak results do not stand in their true shares. Activity calls are given as the source filed them. Cut-off read from the data, not from the text of the source: active = activation above about 40%; inconclusive = between about 15% and that limit; inactive = weaker than that.

Sequences of proteins named here, by UniProt entry; tags and fusion partners are left off.
UniProt P14416, whole entry: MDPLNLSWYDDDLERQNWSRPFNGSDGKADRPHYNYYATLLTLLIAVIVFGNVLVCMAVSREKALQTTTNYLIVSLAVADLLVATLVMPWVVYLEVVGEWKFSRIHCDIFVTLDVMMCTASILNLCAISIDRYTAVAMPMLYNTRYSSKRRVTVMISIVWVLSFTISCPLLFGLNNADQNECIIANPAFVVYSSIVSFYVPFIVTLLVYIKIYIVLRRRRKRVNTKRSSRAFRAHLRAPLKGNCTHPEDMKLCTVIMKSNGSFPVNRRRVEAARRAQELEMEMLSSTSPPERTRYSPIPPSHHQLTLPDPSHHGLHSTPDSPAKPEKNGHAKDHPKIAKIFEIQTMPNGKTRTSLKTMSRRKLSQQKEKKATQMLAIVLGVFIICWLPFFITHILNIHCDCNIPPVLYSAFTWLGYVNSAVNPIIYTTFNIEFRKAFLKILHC

The test addresses D(2) dopamine receptor (Homo sapiens) (UniProt P14416). In words: Beta-Arrestin HTS for Positive Allosteric Modulators of the Human D2 Dopamine Receptor: Agonists. As to conditions: DiscoveRx PathHunter D2 beta-arrestin, luminescence, 90 min; hits give high values; 100% = 57 uM dopamine signal. From the text: There is great interest in identifying small molecule ligands for G-protein coupled receptors (GPCRs) as nearly 50% of all FDA-approved drugs target these important receptor proteins. […] Amongst the dopamine receptors (DARs), the D2 is arguably one of the most validated drug targets in neurology and psychiatry. For instance, all receptor-based antiparkinsonian drugs primarily work via stimulating the D2 DAR, whereas all FDA-approved antipsychotic agents are antagonists of this receptor. The D2 DAR is also therapeutically targeted in other disorders such as restless legs syndrome, tardive dyskinesia, Tourette's syndrome, and hyperprolactinemia.
To this end, a miniaturized qHTS screen was developed to be screened against the Molecular Libraries Small Molecule Repository (MLSMR). This assay seeks to identify agonists against the D2 DAR.
NIH Molecular Libraries Probe Production Network [MLPCN]
NIH Chemical Genomics Center [NCGC]
PI Name: David Sibley, National Institutes of Neurological Disorders and Stroke
DiscoveRx D2 cells were thawed from frozen stock and seeded at 2,100 cells/ 3 uL/well media (DiscoveRx Plating Reagent 2) with MultiDrop Combi dispenser (Thermo Scientific, Logan, UT) onto white tissue culture treated 1536-well Aurora plates (Brooks Automation, Chelmsford, MA) and allowed to attach overnight at 37 deg C, 5% CO2. Next, 23 nL/well of compound solutions in DMSO were added with a pintool transfer (Kalypsis, San Diego, CA). As the positive control, 1 uL/well dopamine (EC100, 57 uM final concentration) diluted in buffer (HBSS + 10 mM HEPES + SMB + 0.1% Tween-20) was dispensed to 1 column of each plate. The rest of the plate was dispensed with buffer only, 1 uL/well as well. The cells were stimulated by compounds or dopamine control for 90 minutes at 37 deg C, 5% CO2, after which 1.5 ul/well of DiscoveRx detection reagent was added with BioRAPTR FRD dispenser. The detection reagent was prepared by mixing of Galacton Star Substrate, Emerald II solution and PathHunter buffer (supplied by the assay kit) together at 1:5:19 proportion accordingly just prior to dispensing. The plates were incubated at ambient temperature for 1 hour and then the luminescent signal was read on ViewLux plate reader (PerkinElmer, Waltham, MA).
With `CP(=O)(Nc1ccc(SC(F)(F)F)cc1)Oc1ccc(F)cc1` (stereo unspecified), the activation was inactive: -3.74%.

For the molecule `O=P(Nc1nccs1)(c1ccccc1)c1ccccc1`, the activation was inactive: 0.798%.

On to `CC(C)C(=O)NC(Sc1ccccc1)C(Cl)(Cl)Cl` (stereo unspecified), for which the activation was inactive: -2.29%.

Turning to `CCOP(C)(=S)SCC(=O)NC(C)(CC)C(=O)O` (stereo unspecified), the activation was inactive: -2.48%.

As to `c1nnnn1CCn1cnnn1`, the activation is inactive: -1.42%.

`CP(=O)(Nc1ccc2c(c1)OCCO2)Oc1ccccc1` (stereo unspecified): the activation is inactive: -3.5%.

`Cc1ccccc1NP(C)(=O)Nc1ccccc1C`: the activation was inactive: -1.32%.

As for `COc1ccc(N)c([N+](=O)[O-])c1[N+](=O)[O-]`, the activation is inactive: 0.641%.

Regarding `COc1ccc(OP(C)(=O)Nc2cccc(Br)c2)cc1` (stereo unspecified), the activation is inactive: -4.67%.

`CN(C)C1(CNC(=O)c2ccc(Cl)c(S(N)(=O)=O)c2)CCCCC1`: the activation is inactive: -0.706%.

Consider `O=P(Nc1ccccn1)(c1ccc(Br)cc1)c1ccc(Br)cc1`, for which the activation was inactive: 3.22%.

Consider `C[C@H]1OP(=O)(Oc2ccccc2)[C@H](O)[C@H](O)[C@H]1N=[N+]=[N-]` (stereo partly specified), for which the activation was inactive: -1.85%.

On to `O=P(Nc1nc2ccccc2s1)(c1ccccc1)c1ccccc1`, for which the activation is inactive: 2.21%.

`CN(C)CCOC(=O)C(O)(c1ccccc1)C1CCCCC1` (stereo unspecified): the activation was inactive: -1.07%.

On to `COc1ccc(NP(C)(=O)Oc2ccccc2OC)cc1` (stereo unspecified), for which the activation was inactive: -3.19%.

On to `O=[N+]([O-])c1ccc(OP2(=O)COCCO2)cc1` (stereo unspecified), for which the activation is inactive: -7.83%.

For the molecule `CC(=O)NC(SC(=S)N(C)C)C(Cl)(Cl)Cl` (stereo unspecified), the activation is inactive: -2.68%.

For `O=[N+]([O-])c1ncn(CCn2cnc([N+](=O)[O-])n2)n1`, the activation is inactive: -0.437%.

For `O=[N+]([O-])c1ccc(O)c(/C=N/Nc2ccc([N+](=O)[O-])cc2[N+](=O)[O-])c1`, the activation was inactive: 11.4%.

Regarding `Cc1cc(-c2cccc3ccccc23)c(C)cn1.O=[N+]([O-])c1cc([N+](=O)[O-])c(O)c([N+](=O)[O-])c1`, the activation was inactive: -6.98%.

For `O=[As](O)(c1ccccc1)c1ccc(O)cc1`, the activation was inactive: -1.84%.

As to `Nc1ccc([As](=O)(O)c2ccc([N+](=O)[O-])cc2)cc1`, the activation is inactive: 1.63%.

As for `C(Cc1nn[nH]n1)Cc1nn[nH]n1`, the activation is inactive: 1.67%.

As to `Cc1c(C(c2ccc3c(c2)OCO3)c2c(C)n(C)n(-c3ccccc3)c2=O)c(=O)n(-c2ccccc2)n1C.O=[N+]([O-])c1cc([N+](=O)[O-])c(O)c([N+](=O)[O-])c1`, the activation was inactive: -0.189%.

As for `O=C(OC1CN2CCC1CC2)c1cccc(Cl)c1` (stereo unspecified), the activation was inactive: -4.07%.

For the molecule `O=C(NC1CCS(=O)(=O)C1)NP(=S)(Oc1ccccc1)Oc1ccccc1` (stereo unspecified), the activation is inactive: 0.526%.

For the molecule `CCNC(=S)/N=C(\N)N[N+](=O)[O-]`, the activation is inactive: -3.67%.

`Cc1ccc(NP(=O)(Oc2cccc(C)c2)Oc2cccc(C)c2)nc1`: the activation is inactive: 0.794%.

With `c1ccc(-c2nn[nH]n2)c(-c2nn[nH]n2)c1`, the activation was inactive: -4.29%.

As to `CCOC(=O)c1ccc(NP(C)(=O)Oc2ccc(F)cc2)cc1` (stereo unspecified), the activation was inactive: 0.267%.

With `O=P1(N(CCCl)CCCl)OCCC2CCCCN21` (stereo unspecified), the activation was inactive: -2.7%.

In the case of `COc1ccc(OP(C)(=O)Nc2ccc(SC(F)(F)F)cc2)cc1` (stereo unspecified), the activation was inactive: 2.64%.

`CC(=O)NC(SC(=S)N(CC(C)C)CC(C)C)C(Cl)(Cl)Cl` (stereo unspecified): the activation was inactive: -2.65%.

Take `Cc1ccc(OP(=O)(Nc2ccccn2)Oc2ccc(C)cc2)cc1`: the activation is inactive: 8.54%.

With `COC(=O)c1cc2c(s1)N=C(c1ccccc1)N(C)P2(=O)N1CCOCC1` (stereo unspecified), the activation is inactive: -0.913%.

Consider `Cc1c([N+](=O)[O-])cc([N+](=O)[O-])c(Br)c1[N+](=O)[O-]`, for which the activation is inactive: -4.01%.

As for `CCC(=O)N1C2C3N(C(=O)CC)C1C1N(C(=O)CC)C(C(N1C(=O)CC)N3C(=O)CC)N2C(=O)CC`, the activation is inactive: -1.55%.

As to `CCN(CC)CCCOC(=O)C(O)(c1ccccc1)C1CCCCC1` (stereo unspecified), the activation is inactive: -3.92%.

Turning to `O=C(OC1CN2CCC1CC2)c1ccccc1` (stereo unspecified), the activation is inactive: -4.61%.

Consider `CP(=O)(Nc1ccccc1)Oc1ccc(F)cc1` (stereo unspecified), for which the activation was inactive: -4.07%.

On to `CN(C)C(=O)Oc1noc2ccccc12`, for which the activation is inactive: -2.59%.

Take `CCCCCOc1ccc(NP(C)(=O)Oc2ccc(Cl)cc2Cl)cc1` (stereo unspecified): the activation was inactive: -3.19%.

In the case of `O=c1c2cc([N+](=O)[O-])ccc2[nH]c2c([N+](=O)[O-])cc([N+](=O)[O-])cc12`, the activation is inactive: -5.17%.

For the molecule `Cc1ccccc1OP(=O)(Nc1ccccn1)Oc1ccccc1C`, the activation is inactive: 0.732%.

Turning to `CC(NC(=O)COC(=O)C(O)(c1ccccc1)c1ccccc1)c1ccccc1` (stereo unspecified), the activation was inactive: 0.352%.

Turning to `CCOc1ccc(C2=NCC(CBr)S2)cc1` (stereo unspecified), the activation is inactive: -6.69%.

In the case of `O=P1(Nc2nc3ccc(Cl)cc3s2)COc2ccccc2O1` (stereo unspecified), the activation was inactive: -2.28%.

As for `CP(=O)(Nc1ccccc1F)Oc1ccccc1` (stereo unspecified), the activation is inactive: -1.96%.

As for `CCc1cc(O)c([N+](=O)[O-])c(C)c1[N+](=O)[O-]`, the activation was inactive: -0.72%.

For `CC(C)c1ccc(OP(C)(=O)Nc2ccc(SC(F)(F)F)cc2)cc1` (stereo unspecified), the activation is inactive: -0.46%.

`CC(C)(C)C(=O)NC(Sc1ccccc1)C(Cl)(Cl)Cl` (stereo unspecified): the activation was inactive: 0.545%.

With `COC(=O)C1(C)COP(=O)(NCc2ccccc2)OC1` (stereo unspecified), the activation is inactive: -0.939%.

As to `N#C/C(=C\c1ccc(N(CCBr)CCBr)cc1)C(N)=O`, the activation is inactive: -4.23%.

`CC(=O)c1ccc(N2CC2c2ccncc2)cc1` (stereo unspecified): the activation is inactive: -1.3%.

For the molecule `C[C@@H]1C=CCP(=O)(Oc2ccccc2)O1` (stereo partly specified), the activation was inactive: -1.91%.

As for `C[C@H]1OP(=O)(Oc2ccccc2)C[C@@H]2O[C@@H]21` (stereo partly specified), the activation was inactive: -3.42%.

In the case of `O=C(OCCN1CCN(CCOCc2ccccc2)CC1)C(O)(c1ccccc1)c1ccccc1`, the activation was inactive: -0.62%.

For the molecule `Cc1ccccc1CN(C)C(=O)COC(=O)C(O)(c1ccccc1)c1ccccc1`, the activation was inactive: 1.44%.

As to `CC(=O)Nc1ccc(Oc2c([N+](=O)[O-])cc([N+](=O)[O-])cc2[N+](=O)[O-])cc1`, the activation was inactive: -9.13%.

For `CC(=O)Nc1ccc([As](=O)(O)O)c(O)c1`, the activation was inactive: -0.353%.

Regarding `Cc1ccc(N/C(=N/P(=O)(N2CCOCC2)N2CCOCC2)N2CCOCC2)cc1`, the activation is inactive: -4.05%.

The record behind these values is PubChem BioAssay AID624465 (National Center for Advancing Translational Sciences (NCATS), 2012).
